The target of data set [1] is T1, human CB1 receptor (Homo sapiens, UniProt P21554). Briefly: CB1 receptor binding, [3H]CP55,940 displacement in membranes of transfected cells. As to conditions: read-out: CB1 Ki; Tables 2b, 3b, 4a; mean±SEM; tested form: HCl.
A further data set concerns the target human CB2 receptor (Homo sapiens, UniProt P34972). Put plainly: CB2 receptor binding, [3H]CP55,940 displacement in membranes of transfected cells. Particulars: read-out: CB2 Ki; Tables 2b, 3b, 4a; mean±SEM; tested form: HCl.
Data set [2] has as its target T1, human CB1 receptor. Briefly: [35S]GTPγS binding assay in membranes of CB1 expressing cells. The class given is biochemical. As to conditions: tested form: HCl. A general note: GTPγS resists hydrolysis and so accumulates on activated G proteins.
In data set [3] the test system is mice. Put plainly: Spontaneous activity (S.A.), mouse tetrad. The data set is classed as in vivo. As to conditions: tested form: HCl.
Data set [4] has as its system mice. Put plainly: Tail-flick antinociception (T.F.), mouse tetrad. The data set is classed as in vivo. As to conditions: tested form: HCl.
The test system of data set [5] is mice. Briefly: Rectal temperature (R.T.), mouse tetrad. The class given is in vivo. As to conditions: tested form: HCl.
Data set [6] relates to mice. Put plainly: Relative immobility (R.I.), ring-immobility test, mouse tetrad. The data set is classed as in vivo. Particulars: tested form: HCl.
Data set [7] relates to mice. Briefly: Tetrad model, all four behavioral measures together (time course, oral and i.c.v. administration). The data set is classed as in vivo, mouse. Particulars: oral, 1 mg/kg, 30 minutes before the start of testing; tested form: HCl.
The conditions of data set [8]: 1 mg of analog in 1 ml of water, visual observation; tested form: HCl.

Sequences of proteins named here, by UniProt entry; tags and fusion partners are left off.
UniProt P21554, whole entry: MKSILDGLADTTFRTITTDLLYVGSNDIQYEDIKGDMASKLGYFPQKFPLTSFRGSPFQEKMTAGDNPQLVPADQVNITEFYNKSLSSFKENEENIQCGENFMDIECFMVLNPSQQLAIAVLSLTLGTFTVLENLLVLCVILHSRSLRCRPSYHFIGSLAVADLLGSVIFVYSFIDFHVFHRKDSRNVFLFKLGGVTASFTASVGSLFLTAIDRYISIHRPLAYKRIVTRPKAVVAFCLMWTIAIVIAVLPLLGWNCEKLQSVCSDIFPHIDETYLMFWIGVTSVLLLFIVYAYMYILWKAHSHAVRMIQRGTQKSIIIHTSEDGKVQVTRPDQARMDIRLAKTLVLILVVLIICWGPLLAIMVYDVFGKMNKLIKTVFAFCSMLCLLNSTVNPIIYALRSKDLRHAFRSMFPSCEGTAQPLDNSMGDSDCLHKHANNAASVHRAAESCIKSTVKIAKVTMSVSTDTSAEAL
UniProt P34972, whole entry: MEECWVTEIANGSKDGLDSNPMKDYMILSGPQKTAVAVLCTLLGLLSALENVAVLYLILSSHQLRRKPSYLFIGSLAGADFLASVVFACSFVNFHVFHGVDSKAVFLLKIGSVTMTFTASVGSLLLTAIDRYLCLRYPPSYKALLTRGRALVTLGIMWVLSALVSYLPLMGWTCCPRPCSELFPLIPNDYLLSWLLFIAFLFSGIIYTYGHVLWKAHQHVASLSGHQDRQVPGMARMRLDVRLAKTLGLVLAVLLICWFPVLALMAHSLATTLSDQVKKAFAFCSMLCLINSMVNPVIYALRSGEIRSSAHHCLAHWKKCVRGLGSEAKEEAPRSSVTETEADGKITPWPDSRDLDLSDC

As usually defined, the Ki is a measure of affinity in units of concentration, obtained from inhibition or displacement. One may read the EC50 as the concentration giving half of the maximal effect.

As to `CC1=CC[C@@H]2[C@@H](C1)c1c(OC(=O)CCCN3CCCCC3C)cc(C(C)(C)CCCCC#N)cc1OC2(C)C` (some centres unmarked), the Ki on human CB1 receptor [1] amounted to 2.63 nM; at human CB2 receptor, 0.7 nM. The “CB1 % CP Stim” value at human CB1 receptor [2] (maximal GTPγS binding as percentage of stimulation produced by CP 55,940) was 77.0 ± 5.87%. At human CB1 receptor [2] (read-out: CB1 EC50, [35S]GTPγS binding, mean±SEM), the EC50 turned out to be 22.1 nM. For the same compound, the “ED50 after i.v. administration, spontaneous activity” value with mice [3] (figure legends, saline) worked out at 0.05 µmol/kg. The “S.A. ED50 (reducing spontaneous activity)” value in the data set with mice [3] (i.v., vehicle saline) was found to be 0.05 µmol/kg. Besides, the “ED50 after i.v. administration, tail-flick response” value in the data set with mice [4] (figure legends, saline) came to 0.04 µmol/kg. Also, the “T.F. ED50 (antinociception in the tail-flick procedure)” value with mice [4] (i.v., vehicle saline) came out at 0.04 µmol/kg. Moreover, in the data set on mice [5] (figure legends, saline), the “ED50 after i.v. administration, rectal temperature” value turned out to be 0.10 µmol/kg. The “R.T. ED50 (lowering rectal temperature)” value in the data set on mice [5] (i.v., vehicle saline) was determined as 0.10 µmol/kg. In the data set on mice [6] (figure legends, saline), the “ED50 after i.v. administration, relative immobility” value stood at 0.11 µmol/kg. The “R.I. ED50 (relative immobility)” value with mice [6] (i.v., vehicle saline) was found to be 0.11 µmol/kg. Moreover, in the data set with mice [7], the “Potency following oral administration (four tests)” value is listed as “effective in all four tests”. Moreover, the “Solubility (water-soluble)” value in data set [8] is “Yes”.

For the origin of these results see US20080064679A1, “Water Soluble Cannabinoids” (priority 2004, published 2008).
